Measurements: US6187552A, “Method for identifying inhibitors of JAK2/cytokine receptor binding” (Pharmacia & Upjohn Company, priority 1998, dated 2001)

Columns and labels:
JAK2 in human TF-1 cells = assay: Tyrosine phosphorylation of JAK2 in human TF-1 cells stimulated with IL-3 (immunoblot); type: cell-based
Description: (§1) The human erythroleukemia cell line TF-1 [46] was obtained from the American Type Culture Collection and grown in RPMI 1640 supplemented with 10% FBS, 100 U/ml penicillin (GibcoBRL, Gaithersburg, Md.), 100 μg/ml streptomycin (GibcoBRL, Gaithersburg, Md.), and 2.5 ng/ml recombinant human IL-3 (Biosource, Camarillo, Calif.). Before experiments, TF-1 cells were grown overnight in RPMI 1640 medium with 1% PBS in the absence of IL-3. Cells were then resuspended at 2×10^7 cells/ml in fresh RPMI 1640 with 1% FBS and treated as described for eosinophils above, except 20 ng/ml IL-3 was used and the lysis buffer was 20 mM Tris, pH 7.6, 50 mM NaCl, 50 mM NaF, 1 mM sodium orthovanadate, 5 mM EGTA, and 1% Triton X-100. For cells treated without IL-3, PBS+0.1% BSA was added instead.
(§2) JAK2 was immunoprecipitated from the lysate by rotating overnight at 4° with a 1:300 dilution of anti-JAK2 antibody (Upstate Biotechnology, Lake Placid, N.Y.). Twenty microliters of protein A-Sepharose (Pharmacia Biotech, Uppsala, Sweden) were added to each lysate, and the incubation was continued one hour.
The beads were washed three times by centrifugation with 1 ml cold lysis buffer, resuspended in sodium dodecyl sulfate-polyacrylamide gel electrophoresis (SDS-PAGE) loading buffer, boiled 10 min, and separated by electrophoresis on 4-20% acrylamide gradient gels (Integrated Separation Systems, Natick, Mass.). Proteins were transferred by the method of Towbin et al to Optitran (Schleicher & Schuell, Keene, N.H.). After blocking in TBS-T (20 mM Tris, pH 7.4, 100 mM NaCl, and 0.05% Tween-20) with 1% bovine serum albumin at 37° for one hour, peroxidase-conjugated anti-phosphotyrosine antibody RC20 (Transduction Laboratories, Lexington, Ky.) was added at a dilution of 1:3000 and incubation continued for two hours at room temperature. The blot was washed three times for 10 min at room temperature in TBS-T and developed using SuperSignal HRP (Pierce Chemical, Rockford, Ill.).

βc in human TF-1 cells = assay: Tyrosine phosphorylation of βc in human TF-1 cells stimulated with IL-3 (immunoblot); type: cell-based
Description: as §2, with “After incubation on ice for 15 min, debris was pelleted by centrifugation at 16,000×g. βc” for “JAK2”, “anti-βcantibody” for “anti-JAK2 antibody”
as §1

B1: IL-3: recombinant human IL-3 (Biosource) (protein, UniProt P08700 20-152, looked up)
Interleukin-3: APMTQTTPLKTSWVNCSNMIDEIITHLKQPPLPLLDFNNLNGEDQDILMENNLRRPNLEAFNRAVKSLQNASAIESILKNLLPCLPLATAAPTRHPIHIKDGDWNEFRRKLTFYLKTLENAQAQQTTLSLAIF
- JAK2 tyrosine phosphorylation (JAK2 in human TF-1 cells; 20 ng/ml IL-3, 37°, FIG. 4): easily detectable
- JAK2 tyrosine phosphorylation, time course (JAK2 in human TF-1 cells; 20 ng/ml IL-3, 37°, FIG. 4): its time course paralleled that of βc
- time of peak phosphorylation of JAK2 (JAK2 in human TF-1 cells; 200 ng/ml IL-3): 1 min
- tyrosine phosphorylation of βc, time course (βc in human TF-1 cells; 20 ng/ml IL-3, 37°, FIG. 3): time course matching that seen in eosinophils
- time of peak phosphorylation of βc (βc in human TF-1 cells; 200 ng/ml IL-3): 1 min
